Assay results reported in ChEMBL document CHEMBL1153395, “Development of a novel virtual screening cascade protocol to identify potential trypanothione reductase inhibitors” (J Med Chem, 2009).

Chains of the proteins cited; added tags and fusions are not shown. Lines headed by an entry give the natural chain unless they say otherwise; changes in a name come on top.
UniProt P28593: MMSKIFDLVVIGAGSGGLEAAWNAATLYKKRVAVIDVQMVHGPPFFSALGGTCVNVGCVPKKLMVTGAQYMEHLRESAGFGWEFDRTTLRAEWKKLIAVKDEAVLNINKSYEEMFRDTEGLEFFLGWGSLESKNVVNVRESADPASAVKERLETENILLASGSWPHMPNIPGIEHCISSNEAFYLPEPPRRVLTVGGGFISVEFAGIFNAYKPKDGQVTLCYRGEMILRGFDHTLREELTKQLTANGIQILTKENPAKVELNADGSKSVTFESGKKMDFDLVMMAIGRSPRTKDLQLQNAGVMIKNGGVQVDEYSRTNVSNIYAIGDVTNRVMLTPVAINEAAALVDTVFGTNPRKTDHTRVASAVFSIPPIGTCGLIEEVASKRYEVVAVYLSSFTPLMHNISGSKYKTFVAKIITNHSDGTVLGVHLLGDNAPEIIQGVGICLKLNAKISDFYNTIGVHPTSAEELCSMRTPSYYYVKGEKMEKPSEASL

Target: Trypanothione reductase (Trypanosoma cruzi, UniProt P28593)
Assay: Inhibition of Trypanosoma cruzi Trypanothione reductase

Compound: CC1CCCCC12NC(=O)N(CC(=O)Nc1ccccc1Sc1ccccc1)C2=O (stereo unspecified)
- IC50: 84.4 µM
